According to publication PMC9139002, “Naphthoquinone as a New Chemical Scaffold for Leishmanicidal Inhibitors of Leishmania GSK-3” (Biomedicines, 2022):

Test system: mouse peritoneal macrophages (MPM)
Experiment: Cytotoxicity on mouse peritoneal macrophages (MTT reduction)
Assay type: cell-based
Conditions: read-out: MPM IC50
Description: Leishmania parasites were collected at late exponential growth phase by centrifugation at 1610× g at 4 °C. Elicited mouse peritoneal macrophages (MPM) were obtained from 8-week-old Balb/c mice through i.p. injection with 1 mL of 10% thioglycolate medium 72 h before extraction. Macrophages were obtained by peritoneal washing (10 mL PBS, 4 °C).
Both activities were assessed by inhibition of MTT (3-(4,5-dimethylthiazol-2-yl)-2,5-diphenyltetrazolium bromide) reduction, as described in [34]. Samples were made in triplicate and assays were repeated at least twice. DMSO content in the medium was adjusted to 0.25% v/v (final concentration), regardless of the final concentration of the drug, and for the control, the untreated parasites. ICx (inhibitory concentration that inhibits parasite growth or enzymatic activity by x%) was calculated using the statistical module of SigmaPlot v11.0 software.

CCCCCCCC(=O)NNC(=O)c1c(O)c2ccccc2n(C)c1=O
IC50: > 25 µM
